{"source": "paper PMC4819448", "key": {"[1]": {"biological_target": "endogenous caspase-8 (human (endogenous in BJAB and HaCaT)) (UniProt Q14790)", "experiment": "affinity purification with mass spectrometry; native CD95 DISC from control (vector) HaCaT cells; label-free absolute quantification (TOP 3) by LC-MS/MS, n = 3"}, "[2]": {"biological_target": "endogenous caspase-8 (human (endogenous in BJAB and HaCaT)) (UniProt Q14790)", "experiment": "affinity purification with mass spectrometry; native TRAIL DISC from control (vector) BJAB cells; label-free absolute quantification (TOP 3) by LC-MS/MS, n = 3"}}, "data": [{"substance": "endogenous c-FLIPL (from UniProt O15519 1-480) (natural protein; other documents disagree on this pair)", "values": [{"measurement": "fold less c-FLIPL than caspase-8 in the DISC", "setting": "[1]", "result": 15, "unit": "fold"}, {"measurement": "fold less c-FLIPL than caspase-8 in the DISC", "setting": "[2]", "result": 15, "unit": "fold"}]}]}
